# Results reported in patent publication US11524945B2, “Compounds for treating ILK-mediated diseases” (The Cleveland Clinic Foundation, priority 2018, dated 2022).
# Test: Log D in 1-Octanol/PBS pH 7.4
# Format: physicochemical
substance,measurement,value
Progesterone [reference compound],LogD Value,3.78
